Source: US20130102680A1, “METHODS FOR SELECTIVE SILENCING OF SENSORY NEURONS” (CORNELL UNIVERSITY, priority 2011, published 2013)

By UniProt entry, the sequences of proteins in these tests, tags left out.
UniProt O35433, whole entry Y511A: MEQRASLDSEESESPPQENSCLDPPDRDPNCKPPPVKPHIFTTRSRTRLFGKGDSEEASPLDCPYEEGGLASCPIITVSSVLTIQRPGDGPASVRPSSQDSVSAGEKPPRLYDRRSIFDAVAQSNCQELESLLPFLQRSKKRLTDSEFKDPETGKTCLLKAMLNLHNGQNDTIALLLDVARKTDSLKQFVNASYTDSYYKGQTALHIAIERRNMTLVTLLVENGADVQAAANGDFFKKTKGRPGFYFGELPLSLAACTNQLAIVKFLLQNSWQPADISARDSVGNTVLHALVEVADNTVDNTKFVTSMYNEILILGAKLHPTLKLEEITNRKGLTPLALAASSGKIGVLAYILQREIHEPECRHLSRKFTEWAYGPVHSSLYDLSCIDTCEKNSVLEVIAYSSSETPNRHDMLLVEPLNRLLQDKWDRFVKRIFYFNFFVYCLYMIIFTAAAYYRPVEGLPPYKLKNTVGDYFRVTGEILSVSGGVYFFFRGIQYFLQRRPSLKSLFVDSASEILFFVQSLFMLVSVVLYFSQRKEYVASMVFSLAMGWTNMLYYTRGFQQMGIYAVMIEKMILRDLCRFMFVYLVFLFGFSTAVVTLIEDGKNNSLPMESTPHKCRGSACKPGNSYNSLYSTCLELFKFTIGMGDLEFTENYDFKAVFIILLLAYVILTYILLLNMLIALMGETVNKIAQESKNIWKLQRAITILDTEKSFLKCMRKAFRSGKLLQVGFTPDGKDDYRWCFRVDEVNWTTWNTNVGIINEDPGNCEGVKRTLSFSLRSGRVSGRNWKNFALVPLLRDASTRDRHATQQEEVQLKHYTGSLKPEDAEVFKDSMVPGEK

Biological target: T1, rTRPV1 Y511A (Rattus norvegicus, UniProt O35433, Y511A)
T1 construct: expressed in transfected cells; host or cells: HEK cells
Assay: YO-PRO-1 entry in HEK cells expressing rTRPV1 Y511A
Assay type: cell-based

2-aminoethoxydiphenyl borate [2-APB]
YO-PRO-1 transport via rTRPV1 Y511A mutant: can facilitate YO-PRO-1 entry
